For the assay, the target named is Hepatocyte growth factor receptor (Homo sapiens, UniProt P08581). In words: Potency index, ratio of foretinib IC50 to compound IC50 for c-MET (unknown origin).

By UniProt entry, the sequences of proteins in these tests, tags left out. Where a name states a change or a piece, a line headed by the entry shows the natural chain unless it says otherwise.
UniProt P08581: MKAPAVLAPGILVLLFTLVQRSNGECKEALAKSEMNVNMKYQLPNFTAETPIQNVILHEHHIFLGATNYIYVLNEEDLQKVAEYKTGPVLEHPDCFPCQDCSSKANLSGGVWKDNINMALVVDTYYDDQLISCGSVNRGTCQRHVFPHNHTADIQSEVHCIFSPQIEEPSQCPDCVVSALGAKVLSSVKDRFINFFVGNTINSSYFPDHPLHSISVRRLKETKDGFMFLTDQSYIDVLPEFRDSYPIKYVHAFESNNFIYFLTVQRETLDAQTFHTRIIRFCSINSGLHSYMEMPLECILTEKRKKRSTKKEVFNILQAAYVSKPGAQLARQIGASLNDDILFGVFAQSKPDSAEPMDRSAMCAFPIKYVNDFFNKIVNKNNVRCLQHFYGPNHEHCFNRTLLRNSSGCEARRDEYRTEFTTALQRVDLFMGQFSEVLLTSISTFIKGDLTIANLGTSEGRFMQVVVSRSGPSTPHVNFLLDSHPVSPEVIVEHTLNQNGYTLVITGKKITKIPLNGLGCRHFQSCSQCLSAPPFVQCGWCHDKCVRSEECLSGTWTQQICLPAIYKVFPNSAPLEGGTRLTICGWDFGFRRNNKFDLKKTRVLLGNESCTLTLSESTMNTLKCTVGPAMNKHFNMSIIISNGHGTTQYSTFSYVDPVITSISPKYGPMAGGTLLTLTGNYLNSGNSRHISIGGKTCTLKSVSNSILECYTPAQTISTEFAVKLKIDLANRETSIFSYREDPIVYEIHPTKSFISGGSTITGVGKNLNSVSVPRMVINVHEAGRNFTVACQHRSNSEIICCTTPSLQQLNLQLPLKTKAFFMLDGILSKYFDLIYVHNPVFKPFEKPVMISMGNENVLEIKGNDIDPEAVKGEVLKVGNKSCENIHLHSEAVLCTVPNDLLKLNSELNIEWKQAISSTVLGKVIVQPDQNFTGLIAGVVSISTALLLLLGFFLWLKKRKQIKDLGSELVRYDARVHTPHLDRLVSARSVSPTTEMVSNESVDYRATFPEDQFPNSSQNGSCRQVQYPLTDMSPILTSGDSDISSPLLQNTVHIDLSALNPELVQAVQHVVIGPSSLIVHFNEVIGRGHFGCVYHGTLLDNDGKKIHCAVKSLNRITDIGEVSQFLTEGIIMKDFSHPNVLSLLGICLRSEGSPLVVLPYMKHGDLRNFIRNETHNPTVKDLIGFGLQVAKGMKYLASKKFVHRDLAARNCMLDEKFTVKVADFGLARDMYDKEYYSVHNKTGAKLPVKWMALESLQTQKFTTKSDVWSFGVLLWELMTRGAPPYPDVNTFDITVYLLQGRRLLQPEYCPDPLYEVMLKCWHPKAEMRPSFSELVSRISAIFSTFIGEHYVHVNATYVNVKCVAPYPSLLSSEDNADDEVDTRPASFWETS

Consider `COc1cc2c(Oc3ccc(NC(=O)c4cn(-c5ccccc5OC)cn4)cc3F)ccnc2cc1OCCCN1CCN(C)CC1`, for which the Ratio IC50 is 1.3.

For the origin of these results see ChEMBL document CHEMBL3872279, “Design, synthesis and biological evaluation of novel 4-(2-fluorophenoxy)quinoline derivatives as selective c-Met inhibitors” (Bioorg Med Chem, 2017).
